# According to US20140121182A1, “PROTEASOME INHIBITORS AND PROCESSES FOR THEIR PREPARATION, PURIFICATION AND USE” (Cephalon, Inc., priority 2011, published 2014):
# Assay: Storage for approximately one year at ambient indoor temperature and humidity, HPLC purity
# Type: physicochemical
# Settings: in a vial at the rear of a fume hood
# Description: A 100 mL three neck round bottom flask equipped with a stir bar, thermocouple and nitrogen inlet is charged with 6.0 g (16.6 mmol) of Compound 1 (98.5A % purity) and 60 mL of ethyl acetate then stirred for five minutes at room temperature to dissolve the solids. Diethanol amine (1.68 g, 16.0 mmol) is charged and solids begin to form when addition is only ⅔ complete. The white slurry is stirred at room temperature for two hours and then the solids are collected by vacuum filtration, washed with 50 mL of ethyl acetate and dried overnight in a vacuum oven at 40° C. A quantitative yield of the desired product is obtained as a crystalline solid with an HPLC purity of 99.7A %. After storing for approximately one (1) year at ambient indoor temperature and humidity (in a vial at the rear of a fume hood), the HPLC purity was 99.9A %. ^1H NMR (d6-DMSO, 400 MHz) δ 8.8 (t, 1H, J=5.88 Hz), 7.55 (s, 2H), 7.52 (s, 1H), 6.99 (d, 1H, J=8.36 Hz), 6.57 (s, b, 1H), 3.85 (dq, 1H, J=16.1, 5.92 Hz), 3.69 (m, 2H), 3.57 (m, 1H), 3.14 (m, 1H), 2.99 (m, 2H), 2.75 (m, 1H), 2.69 (m, 1H), 1.59 (m, 1H), 1.31 (m, 1H), 1.22 (m, 1H), 0.824 (d, 3H, J=6.64 Hz), 0.797 (D, 3 h, J=6.48 Hz) […]
substance,measurement,value
"2,5-Dichloro-N—[(R)-3-methyl-1-(6-methyl-[1,3,6,2]dioxazaborocan-2-yl)-butylcarbamoyl]-methylbenzamide",HPLC purity after storing for approximately one (1) year,99.6 A %
